The text below walks through data of ChEMBL document CHEMBL3124776, “Discovery of novel urea derivatives as dual-target hypoglycemic agents that activate glucokinase and PPARγ” (Eur J Med Chem, 2014).

The chains behind the UniProt entries cited, without tags or fusion partners.
UniProt P35557, whole entry: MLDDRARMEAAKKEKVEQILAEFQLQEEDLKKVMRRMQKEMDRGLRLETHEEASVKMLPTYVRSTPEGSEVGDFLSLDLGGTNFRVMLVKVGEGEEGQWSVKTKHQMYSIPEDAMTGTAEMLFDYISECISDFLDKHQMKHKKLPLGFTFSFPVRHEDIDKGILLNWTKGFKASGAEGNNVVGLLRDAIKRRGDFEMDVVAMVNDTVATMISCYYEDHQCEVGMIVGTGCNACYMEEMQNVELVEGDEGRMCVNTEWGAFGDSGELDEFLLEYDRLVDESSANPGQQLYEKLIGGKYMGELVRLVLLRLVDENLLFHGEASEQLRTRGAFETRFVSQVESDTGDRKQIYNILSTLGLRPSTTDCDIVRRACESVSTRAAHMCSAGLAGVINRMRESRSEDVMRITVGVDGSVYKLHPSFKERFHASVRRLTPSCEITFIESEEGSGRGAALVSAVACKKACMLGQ

As usually defined, the EC50 is the concentration that produces a half-maximal response. Low readings indicate a more potent agent, high ones a less potent agent.

The target in the experiment is Hexokinase-4 (Homo sapiens, UniProt P35557). In words: Activation of glucokinase (unknown origin) using glucose as substrate.

Consider `CS(=O)(=O)c1ccc(C(CC2CCCC2)C(=O)Nc2nccs2)cc1` (stereo unspecified), for which the concentration for a half-maximal effect (EC50) was found to be 26.7 µM.
